# Literature values, collected in PubChem BioAssay AID1811 (Shanghai Institute of Organic Chemistry, 2009).
# The other results are listed elsewhere or left out. Active and inactive are the calls of the source. Where no limit is named, active and inactive come without a cut-off here.
# Tested on: acetylcholine-binding protein
# Assay: PubChem AID 1811
# Settings: PDB complex binding affinities from literature
row,SMILES,outcome
1,CN1[C@@H](C[C@@H](O)c2ccccc2)CCC[C@H]1CC(=O)c1ccccc1,active
2,CN1CCC[C@H]1c1cccnc1,active
